Experimental data: ChEMBL document CHEMBL1131579, “Nitroaromatic amino acids as inhibitors of neuronal nitric oxide synthase” (J Med Chem, 1998)
pIC50: −log10 of the molar value.

Biological target: T1, Nitric oxide synthase 3 (Bos taurus, UniProt P29473)
T1 sequence (P29473 whole entry): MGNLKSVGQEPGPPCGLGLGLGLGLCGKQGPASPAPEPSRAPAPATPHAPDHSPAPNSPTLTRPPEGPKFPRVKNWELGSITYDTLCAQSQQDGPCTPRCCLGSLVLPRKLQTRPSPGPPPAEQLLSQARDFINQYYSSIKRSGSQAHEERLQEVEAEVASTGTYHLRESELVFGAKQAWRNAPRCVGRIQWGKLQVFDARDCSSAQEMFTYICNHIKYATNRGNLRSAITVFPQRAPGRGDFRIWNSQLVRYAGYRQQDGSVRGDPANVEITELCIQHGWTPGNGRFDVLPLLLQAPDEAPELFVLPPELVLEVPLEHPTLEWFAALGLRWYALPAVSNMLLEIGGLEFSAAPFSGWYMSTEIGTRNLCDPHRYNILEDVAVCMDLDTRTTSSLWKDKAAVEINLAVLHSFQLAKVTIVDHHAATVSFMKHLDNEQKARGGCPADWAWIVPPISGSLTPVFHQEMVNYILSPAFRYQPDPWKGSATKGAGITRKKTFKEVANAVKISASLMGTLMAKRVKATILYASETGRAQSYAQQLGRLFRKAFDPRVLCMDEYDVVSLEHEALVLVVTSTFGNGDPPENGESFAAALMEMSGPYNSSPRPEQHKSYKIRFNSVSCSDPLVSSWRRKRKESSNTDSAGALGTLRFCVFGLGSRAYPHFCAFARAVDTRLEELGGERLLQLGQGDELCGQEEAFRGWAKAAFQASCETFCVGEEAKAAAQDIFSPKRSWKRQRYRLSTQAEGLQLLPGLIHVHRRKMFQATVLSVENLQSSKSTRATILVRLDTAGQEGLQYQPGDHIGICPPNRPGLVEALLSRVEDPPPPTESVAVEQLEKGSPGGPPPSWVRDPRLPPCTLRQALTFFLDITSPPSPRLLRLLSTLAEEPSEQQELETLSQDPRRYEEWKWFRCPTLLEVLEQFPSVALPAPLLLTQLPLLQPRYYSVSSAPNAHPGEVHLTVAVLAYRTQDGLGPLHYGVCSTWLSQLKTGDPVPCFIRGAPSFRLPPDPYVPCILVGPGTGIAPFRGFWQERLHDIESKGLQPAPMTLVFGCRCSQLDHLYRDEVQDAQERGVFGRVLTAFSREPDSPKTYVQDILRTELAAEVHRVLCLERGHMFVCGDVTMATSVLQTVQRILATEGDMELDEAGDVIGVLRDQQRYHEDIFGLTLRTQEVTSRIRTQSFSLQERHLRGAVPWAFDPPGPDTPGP
Assay: Inhibitory activity of conversion of radiolabeled arginine to citrulline by isomeric form of nitric oxide synthase Endothelial nitric oxide synthase from cultured bovine aortic endothelial cells
Format: cell-based, Endothelial cell
In short: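 eNOS taken from the CHAPS-solubilized particulate fraction of cultured bovine aortic endothelial cells. Incubated 20 min at ambient temperature with 10 μM L-[2,3-3H]arginine, 1 mM NADPH, 2 mM CaCl2 and graded inhibitor. Stopped at pH 5.5 with EGTA/EDTA; [3H]citrulline isolated on cation-exchange column and counted by scintillation. IC50.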

Compound N=C(NCCC[C@H](N)C(=O)O)N[N+](=O)[O-] [NITROARGININE] has a pIC50 of 5.92.
